According to patent US4032659A (priority 1975, dated 1977):

Experiments:
Type in all cases: in vivo, mouse
[1] = tested on: Herpes virus; settings: oral
[2] = tested on: Influenza PR 8 virus; assay: Chemoprophylaxis of Influenza PR 8 virus infection in mice
[3] = tested on: Influenza Ann Arbor virus; assay: Chemoprophylaxis of Influenza Ann Arbor (A1) virus infection in mice; settings: oral
[4] = tested on: Influenza B Massachusetts virus; assay: Chemoprophylaxis of Influenza B Massachusetts virus infection in mice; settings: oral
Method: The activity of four compounds on Influenza B Mass. was tested in mice.
A portion of a commercially available sample of amantadine was recrystallized from isopropanol. The activity of the material against Influenza B Mass. was tested for the sample as obtained, the recrystallized portion, and the mother liquor obtained from recrystallizing the portion.

[5] = intravenous, no pre-infection, total dose 2 μg
[6] = intravenous, no pre-infection, total dose 20 μg
[7] = intravenous, no pre-infection, total dose .2 μg

In the case of `CCC(C)=NNC(N)=S` [2-Butanone, thiosemicarbazone, 2-butanone, thiosemicarbazone], the Survivors ([1]; total dose .00005 μg) is reported as 3, the “No. animals surviving when 17/20 controls are dead” value ([1]; total dose .005 μg) is reported as 3 and the Survivors ([1]; total dose .005 μg) is reported as 2. For the same compound, the Survivors ([2]; drinking water 24 h post-infection only, second printed value (concentration column unclear)) was 3, the Survivors ([2]; drinking water 24 h pre- and 24 h post-infection, 5 mg/ml) was 3 and the Survivors ([2]; drinking water 24 h pre- and 24 h post-infection, 10 mg/ml) was 2. The Survivors ([2]; drinking water 24 h pre- and 24 h post-infection, .05 mg/ml) was 3, the “No. animals surviving when 18/20 of controls are dead” value [2, 5] was 3 and the Survivors [2, 5] was 3. For the same compound, the “No. animals surviving when 18/20 of controls are dead” value [2, 6] was 3, the Survivors [2, 6] was 3 and the “No. animals surviving when 18/20 of controls are dead” value [2, 7] was 2. The Survivors [2, 7] was 2, the “No. animals surviving when 19/20 of controls are dead” value ([2]; oral, total dose .000005 μg) was 2 and the Survivors ([2]; oral, total dose .00005 μg) was 2. The “No. animals surviving after 6 days” value ([2]; oral, total dose .0005 μg) was 2, the “No. animals surviving after 7 days” value ([2]; oral, total dose .0005 μg) was 3 and the “No. animals surviving after 6 days” value ([2]; oral, total dose .005 μg) was 2. For the same compound, the “No. animals surviving after 7 days” value ([2]; oral, total dose .005 μg) was 2, the “No. animals surviving after 6 days” value ([2]; subcutaneous, total dose .000005 μg) was 2 and the “No. animals surviving after 6 days” value ([2]; subcutaneous, total dose .00005 μg) was 3. The “No. animals surviving after 6 days” value ([2]; subcutaneous, total dose .005 μg) was 3.

In the case of `Cc1ccccc1NC(=S)NN=C1CCCC1` [cyclopentanone, 3-thio-4-o-tolylsemicarbazone], the Survivors ([3]; total dose 30 ng) is reported as 1 and the “No. animals surviving after 5 days” value ([3]; total dose 30 μg) is reported as 5.

In the case of `N=C(N)NN` [aminoguanidine, bicarbonate], the “No. animals surviving after 7 days” value ([4]; total dose 40pg) is reported as 2, the “No. animals surviving after 7 days” value ([4]; total dose 400pg) is reported as 4 and the Survivors ([4]; total dose 400pg) is reported as 2. For the same compound, the “No. animals surviving after 7 days” value ([4]; total dose 4ng) was 4, the “No. animals surviving after 7 days” value ([4]; total dose 400ng) was 3 and the “No. animals surviving after 7 days” value ([4]; total dose 4μg) was 3.

Where two headings read alike, the source gives them in different places.
